Laboratory results taken from patent publication US9657006B2, “Macrocyclic factor VIIa inhibitors” (BRISTOL-MYERS SQUIBB COMPANY, priority 2013, dated 2017).

Sequences of proteins named here, by UniProt entry; tags and fusion partners are left off. Residues count along the entry.
UniProt P08709, 61-212 limits assumed: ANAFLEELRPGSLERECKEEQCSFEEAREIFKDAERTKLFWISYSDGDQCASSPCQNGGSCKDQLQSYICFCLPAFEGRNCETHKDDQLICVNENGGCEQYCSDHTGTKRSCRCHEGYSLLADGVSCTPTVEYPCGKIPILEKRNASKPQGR
UniProt P08709, 213-466 limits assumed: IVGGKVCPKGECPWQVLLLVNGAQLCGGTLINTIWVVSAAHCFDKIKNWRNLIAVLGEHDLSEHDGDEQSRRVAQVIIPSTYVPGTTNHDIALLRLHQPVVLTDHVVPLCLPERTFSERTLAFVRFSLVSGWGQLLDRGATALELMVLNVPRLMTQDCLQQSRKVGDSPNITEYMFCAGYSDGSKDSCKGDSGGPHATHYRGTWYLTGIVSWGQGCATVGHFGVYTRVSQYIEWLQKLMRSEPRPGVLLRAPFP
UniProt P13726, 33-295 partner limits assumed: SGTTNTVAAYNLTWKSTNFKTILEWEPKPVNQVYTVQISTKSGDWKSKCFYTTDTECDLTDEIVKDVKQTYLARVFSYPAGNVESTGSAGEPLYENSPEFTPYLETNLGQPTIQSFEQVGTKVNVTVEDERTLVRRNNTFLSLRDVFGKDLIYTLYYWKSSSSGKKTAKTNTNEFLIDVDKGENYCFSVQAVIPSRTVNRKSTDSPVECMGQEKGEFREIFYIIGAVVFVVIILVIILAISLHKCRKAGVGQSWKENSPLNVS

Target: FVIIa (Homo sapiens, UniProt P08709)
Test: FVIIa Ki (25° C.): FVIIa peptide substrate assay
Details: read-out: FVIIa Ki, S2288 peptide substrate, full-length human TF
Protocol: The effectiveness of compounds of the present invention as inhibitors of the coagulation Factors, VIIa, IXa, Xa, XIa, XIIa, plasma kallikrein or thrombin, tissue kallikrein and activated protein C, can be determined using a relevant purified serine protease, respectively, and an appropriate synthetic substrate. The rate of hydrolysis of the chromogenic or fluorogenic substrate by the relevant serine protease was measured both in the absence and presence of compounds of the present invention. […] A decrease in the rate of absorbance or fluorescence change in the presence of inhibitor is indicative of enzyme inhibition. Such methods are known to one skilled in the art. The results of this assay are expressed as the inhibitory constant, Ki.
a. FVIIa Ki (25° C.): FVIIa Peptide Substrate Assay
S2288 (range of concentrations) and FVIIa inhibitor were incubated for 15 minutes (min) at 25° C. Reactions were initiated by addition of a solution of full-length human TF (6 nM), FVIIa (0.75 nM), and PCPS (25 μM). FVIIa hydrolyses S2288, which was monitored for up to 60 min at 405 nm. […]

Q: How did the Ki turn out when CN1Cc2cc(ccc2S(=O)(=O)C2CC2)NC(=O)COCc2cccc(c2)C(Nc2ccc3c(N)ncc(F)c3c2)C1=O (stereo not shown) was run?
A: 265 nM
